Assay results reported in US10724034B2, “Genetic encoding of chemical post-translational modification for phage-displayed libraries” (THE GOVERNORS OF THE UNIVERSITY OF ALBERTA, priority 2014, dated 2020).

Sequences of proteins named here, by UniProt entry; tags and fusion partners are left off.
UniProt P17931, whole entry: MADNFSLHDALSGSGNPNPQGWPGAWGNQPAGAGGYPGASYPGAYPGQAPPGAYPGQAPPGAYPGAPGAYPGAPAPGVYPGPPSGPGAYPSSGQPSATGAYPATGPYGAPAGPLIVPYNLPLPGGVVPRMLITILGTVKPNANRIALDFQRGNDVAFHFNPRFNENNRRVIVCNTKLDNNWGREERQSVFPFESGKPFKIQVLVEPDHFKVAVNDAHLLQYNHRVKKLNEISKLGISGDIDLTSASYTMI

Target: human Galectin-3 (Homo sapiens, UniProt P17931)
Experiment: ELISA-like competition assay: inhibition of HRP-Lactose binding to surface-immobilized Galectin-3
Text: Using an ELISA-like competition assay (FIGS. 12, 13), the binding activity of these glycopeptides to carbohydrate recognition domain (CRD) of the human Galectin-3 and their ability to compete with binding of Lactose-conjugated horseradish peroxidase (HRP), were validated (FIG. 12). As references, we used known Gal3 ligands, such as lactose, Methyl-β-D-galactopiranoside (MeGal) and tetrasaccharide Lacto-N-Tetraose (LNT).
FIG. 12 illustrates an evaluation of activity of hits identified from genetically-encoded libraries of glycopeptides against […]. The assay measures that inhibitory constant (denoted as Effective concentrations of half-maximal response or EC50) of compounds in the inhibition of the interaction between soluble HRP-Lactose and surface-immobilized Galectin-3.
Xylose-linked to the tetrapetide Xyl-ALRV (SEQ ID NO:107) compete with HRP-Lac with IC50 similar to MeGal. […] The competitive activity is quantified as decrease in color development by HRP-lac conjugate bound to Galectin-3 coated at 10 μg/ml concentration on polystyrene 96-well plates. […] This activity was in the same order of the LNT, which was reported that binds to Galectin-3 with a Kd of 97 nanomolars.

C[C@H](NC(=O)[C@@H]1CCCN1C(=O)C=NO[C@@H]1O[C@H](CO)[C@H](O)[C@H](O)[C@H]1O)C(=O)N1CCC[C@H]1C(=O)N[C@H](C(N)=O)[C@@H](C)O
Times better than LNT at inhibiting HRP-Lac binding to immobilized Galectin-3 (versus LNT): 5 times | Times better than Lactose at inhibiting HRP-Lac binding to Galectin-3 (versus Lactose): 30 times | Times more potent than MeGal at inhibiting HRP-Lac binding to Galectin-3 (versus MeGal): > 1500 times
